These are literature values, as cited in patent US20210230300A1, “INHIBITORS OF SHP2” (Bayer Aktiengesellschaft, priority 2018, published 2021).

Chains of the proteins cited; added tags and fusions are not shown.
UniProt Q06124, whole entry: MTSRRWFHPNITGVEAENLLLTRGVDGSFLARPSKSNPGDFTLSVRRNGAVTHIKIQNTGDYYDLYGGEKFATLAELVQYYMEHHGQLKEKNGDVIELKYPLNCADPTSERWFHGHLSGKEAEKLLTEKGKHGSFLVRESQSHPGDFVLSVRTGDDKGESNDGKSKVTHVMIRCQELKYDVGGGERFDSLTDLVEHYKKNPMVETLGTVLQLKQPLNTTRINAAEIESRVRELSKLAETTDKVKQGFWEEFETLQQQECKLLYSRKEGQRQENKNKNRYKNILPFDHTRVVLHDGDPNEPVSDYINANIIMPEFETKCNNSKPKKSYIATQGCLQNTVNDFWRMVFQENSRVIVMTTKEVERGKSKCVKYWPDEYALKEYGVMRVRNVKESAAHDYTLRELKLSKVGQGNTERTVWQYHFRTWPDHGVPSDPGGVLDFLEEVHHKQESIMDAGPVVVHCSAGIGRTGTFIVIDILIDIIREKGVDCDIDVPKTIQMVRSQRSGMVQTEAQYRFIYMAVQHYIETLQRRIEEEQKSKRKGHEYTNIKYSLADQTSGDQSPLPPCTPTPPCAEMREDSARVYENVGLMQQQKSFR

Some results are limits rather than exact numbers.

The target of one series is SHP2 (Homo sapiens, UniProt Q06124). The note with it: anchors to the SHP2 active site; cited from earlier work.
A further series deals with 20 other PTPs. To be noted: cited from earlier work.

Broadly, the IC50 is the midpoint of a concentration-inhibition curve. Regarding `Cn1c(-c2cccc(NC(=O)C(=O)Nc3ccc(-c4ccsc4)cc3)c2)c(I)c2cc(C(=O)O)c(O)cc21`, the IC50 on SHP2 was 200 nM. In addition, the “selectivity against any of 20 other PTPs” value in the series on 20 other PTPs is given as more than 5 fold.
